Test results published in US9370183B2, “Use of ALS inhibitor herbicides for control of unwanted vegetation in ALS inhibitor herbicide tolerant Brassica, such as B. napus, plants” (Bayer Intellectual Property GmbH, priority 2011, dated 2016).

Tests used:
[1] = tested on: B. napus wild type variety SR002201; assay: Greenhouse herbicide injury, visual scoring, wild type variety; format: in vivo, Brassica napus; conditions: 15 g a.i./ha; spray at BBCH 12-13 with Mero 1 l/ha; visual scoring 14 days after application; 0%=no damage, 100%=all plants dead
Procedure: (§1) The individual components herbicide and surfactant with regard to type and application rate as stated in table 1 were added with stirring to a water application rate of 300 l/ha so that a homogeneous spray mixture was formed. The adjuvant Mero® (Bayer CropScience AG: active ingredient is 81% rapeseed oil methyl ester) was always added to the spray liquids with a use rate of one l/ha.
(§2) Seeds of B. napus were sown in a sandy loam soil and placed in a climate chamber in a greenhouse under good growth conditions (16 h light, temperature day 14° C., night: 8° C.). The plants (10 per experiment) were grown up to growth stage of BBCH 12 to BBCH 13. The plants were treated on a track sprayer with spray mixtures which had been prepared in accordance with the examples. After the treatment, the plants were returned to the climate chamber.
(§3) Visual scoring was carried out using a percentage scale of 0%=no damage to 100%=all plants dead.
Wild type seeds SR002201 for microspore isolation, culture and selection experiments of mutants have been deposited with the NCIMB, Aberdeen, UK, under Number NCIMB 41813.

B. napus mutant FM 202 = format: in vivo, Brassica napus; conditions: 15 g a.i./ha; spray at BBCH 12-13 with Mero 1 l/ha; visual scoring 14 days after application; 0%=no damage, 100%=all plants dead
Procedure: as §1, §2, §3

Structure (SMILES): COc1cc(OC)nc(NC(=O)NS(=O)(=O)c2ncccc2C2=NOCCO2)n1 [Compound A1-87]
- Herbicide injury on BRSNS [%] SR002201 [1]: 95%
- Herbicide injury on BRSNS [%] FM 202 (B. napus mutant FM 202): 0%
